Measurements published in patent US20230364271A1, “METHODS AND COMPOSITIONS FOR INCREASING UPTAKE, INTERNALIZATION, AND/OR RETENTION OF SMALL MOLECULE LIGANDS” (CORNELL UNIVERSITY, priority 2020, published 2023).
Entries after “also recorded” stand apart in the source; their conditions may differ.

Columns and labels:
CWR22rv1 tumors = assay: Tumor uptake of PSMA-617-Lu^177 in CWR22rv1 xenografts with cold antibody (Example 4); assay type: in vivo, BALB/c nude mice; settings: combined injection day 0, sacrifice day 3
Protocol: CWR22rv1 cells (5×10^6 cells/200 μl matrigel/mouse) were injected into 40 BALB/c nude mice. After tumors were established and growing, all mice were injected intravenously (IV) via tail vein with PSMA-617-Lu^177 (300 μci/per mouse) on day 0. The treatment groups were as follows.
All mice were euthanized 3 days after injection of PSMA-617-Lu^177. All tumors were harvested, weighed individually, and radioactivity counted.

LNCaP tumors = assay: Early tumor uptake of PSMA I&T-Lu^177 in LNCaP tumors with unlabeled antibody (Example 5); assay type: in vivo, mice; settings: 2 hours after IV injection, compared to no antibody
Protocol: The impact of J591 anti-PSMA antibody on PSMA ligand (PSMA I&T-Lu^177) internalization at an early time point (2 hours) in vivo was measured in vivo in an animal model. In this experiment, there were 3 groups of mice with 7 LNCaP tumors in each group. One group got PSMA I&T-Lu^177 injected IV alone; a 2nd group got PSMA I&T-Lu^177 co-injected with unlabeled Herceptin (anti-Her2) and the 3rd group got PSMA I&T-Lu^177 co-injected with unlabeled J591 (anti-PSMA). To determine the very short-term effect of the combination on tumor uptake of the radiolabeled PSMA I&T, the mice were sacrificed 2 hours after injection, their tumors harvested, weighed and PSMA I&T-Lu^177 radioactivity counted in a gamma counter to determine counts per mg of tumor. The group treated with anti-her2 was a negative control to rule out a non-specific effect of a non-PSMA antibody.

Substance: Herceptin: antibody targeting HER2, an antibody negative control
- effect of co-administered cold antibody on tumor uptake of PSMA-617-Lu^177 (CWR22rv1 tumors): no impact; also recorded: no effect
- effect of co-injected unlabeled antibody on tumor uptake of PSMA I&T-Lu^177 (LNCaP tumors): no effect
